Results on one compound are retold here after publication PMC13619035 (British Journal of Clinical Pharmacology, 2026).

A short description of this data set: Single-dose pharmacokinetic study in healthy volunteers, plasma concentrations by LC-MS/MS. The note with it: human, po. In kind it is in vivo.

As for `COc1ccc2[nH]c([S+]([O-])Cc3ncc(C)c(OC)c3C)nc2c1` (stereo not shown) [omeprazole], the Tmax was determined as 1.5 h.

The Tmax is the time at which the peak concentration occurs.
